From article PMC10070462, “Drug cytotoxicity screening using human intestinal organoids propagated with extensive cost-reduction strategies” (Scientific Reports, 2023)

Test system: hiPSO-derived IECs
Experiment: Cell viability of dispersed hiPSO-derived IECs (CellTiter-Glo 3D)
Conditions: indicated doses, 48 h, Fig. 5A, B

N[C@@H](Cc1ccc([N+]([O-])(CCCl)CCCl)cc1)C(=O)O
toxicity against IECs (cell viability): little toxicity
